By UniProt entry, the sequences of proteins in these tests, tags left out. Residues count along the entry.
UniProt P02768, 25-609: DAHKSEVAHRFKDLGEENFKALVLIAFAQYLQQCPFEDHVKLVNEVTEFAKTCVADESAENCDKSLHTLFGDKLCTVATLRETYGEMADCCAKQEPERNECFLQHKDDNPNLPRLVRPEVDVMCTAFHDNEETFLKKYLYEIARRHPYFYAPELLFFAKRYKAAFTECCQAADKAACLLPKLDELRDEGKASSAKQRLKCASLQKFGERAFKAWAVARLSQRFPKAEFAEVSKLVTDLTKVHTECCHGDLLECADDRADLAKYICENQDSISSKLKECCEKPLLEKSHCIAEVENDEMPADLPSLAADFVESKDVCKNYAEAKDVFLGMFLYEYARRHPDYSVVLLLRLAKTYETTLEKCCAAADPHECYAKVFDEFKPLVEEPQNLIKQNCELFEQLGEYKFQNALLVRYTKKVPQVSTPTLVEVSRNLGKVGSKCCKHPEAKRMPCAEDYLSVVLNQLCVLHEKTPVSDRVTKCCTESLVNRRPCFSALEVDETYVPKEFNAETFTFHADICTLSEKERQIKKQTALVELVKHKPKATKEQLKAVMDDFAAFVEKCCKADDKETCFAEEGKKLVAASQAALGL

According to patent publication US20070219767A1, “ATOMIC COORDINATES OF ALBUMIN DRUG COMPLEXES AND METHOD OF USE OF PHARMACEUTICAL DEVELOPMENT” (priority 2003, published 2007):

Molecular target: human serum albumin (Homo sapiens, UniProt P02768)
Test: X-ray crystallography of human serum albumin/drug complexes: binding location
Conditions: for Binding site of the Drug-Albumin Complex (site heading the list of contacting residues): Table II, Phase II, refined coordinates, listed residues within 5 Å of bound ligand

| Compound | Binding site of the Drug-Albumin Complex (site heading the list of contacting residues) | Albumin Binding Location (Table I, Phase I, subdomain of HSA where the drug is found in the crystal complex) |
| --- | --- | --- |
| COc1cc2nc(N3CCN(C(=O)c4ccco4)CC3)nc(N)c2cc1OC [Prazosin] | Site IB, L115, V116, R117, P118, M123, F134, K137, Y138, I142, | – |
| CCOC(=O)[C@H](CCc1ccccc1)N[C@@H](C)C(=O)N1[C@H](C(=O)O)C[C@@H]2CCC[C@@H]21 [Ramipril] | Site IB, L115, V116, R117, P118, M123, Y138, L139, E141, I142, | – |
| COc1cc2nc(N3CCN(C(=O)C4CCCO4)CC3)nc(N)c2cc1OC (stereo not shown) [Terazosin] | Site IB, L115, V116, R117, P118, M123, A126, F134, K137, Y138, | – |
| Celocoxib | – | IIA |
